Source: PubChem
Most compounds without a hit are left out; they make up all but 1.3% or so of the library.
ERG-DNA inh = ERG Ets/DNA interaction inhibition | P11308 | fluorescence polarization, His-ERG Ets domain / labelled DNA | Potency, µM (series often up to 76.9 µM), usual class: inhibitors | hit rate 0.028% among 370,000 | AID 624246; active means well fitted inhibition curve with a large enough effect in the polarisation, with a control signal flat; inconclusive means small, poorly fitted or top-dose-only effect, or effect the other way, or a change in a side signal; inactive means no such curve, though single readings can be large or run the other way; the % refers to the polarisation;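 further: polarization taken with two DNA probes labelled with fluorescein and Texas red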
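His-tagged ERG Ets domain (1 uM in the protein solution; 300mM KCl, 50mM Tris-HCl, 1mM EDTA, 1mM DTT, pH 7.5) received compound, then a probe mix of 5 nM fluorescein-DNA and 100nM Texas-615-DNA. Fluorescence polarization was read for both dyes.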
miR-21 reporter = raises the signal of a miR-21 reporter; 340,000 tested, under 10 active; HeLa miR-21 FLuc reporter, luciferase, 48 h; Potency, µM (highest dose often 38.3 µM); active = well fitted rising curve with a large enough effect; inconclusive = small, poorly fitted or top-dose-only effect; inactive = no such curve, though single readings can be large or run the other way;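 also: miR-21 action dims this reporter so a rising signal means less miR-21 action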
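HeLa miR-21-FLuc reporter line, endogenous miR-21; 2000 cells/well in DMEM/10% FBS; compound titration up to ~40uM final, 48 h, 37 degree Celsius; luciferase detection reagent, 15 min lysis, CCD luminescence.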
Giardia kill = Giardia lamblia killing; activity change, % at 7.66 µM, hits read low; hit rate 0.15% among 340,000; AID 540267; Giardia lamblia trophozoite viability; in the data active means activity change below about -80%; inconclusive means between about -30% and that limit;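 further: parasites exposed to compound for two days anaerobically before the ATP read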
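Trophozoites 100 cells/well + cpd; 48 hrs, 37 deg C, anaerobic. ATPLite 1-Step added, 15-30 min RT, luminescence read (ATP-based viability).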
PTHR1 agonist = activates the human parathyroid hormone receptor PTHR1; Q03431; hit rate 0.075% among 410,000; HEK293 GP2 PTHR1 cells, GloSensor cAMP luminescence, 1 h; Potency, µM (highest dose often 115 µM), hits mostly activators; further: nearly all actives have a fitted effect of over 55% in size
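HEK-293-derived GP2 cells expressing PTHR1 and a GloSensor cAMP reporter, 3,000/well, plated overnight, given luciferin plus IBMX (each 0.5 mM as added) for 1 h at 37 °C, then compound for 1 h at 37 °C. Luminescence was read after 15 min at room temperature.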
PINK1 modulator = changes PINK1 expression; AID 624263; hit rate 0.2% among 410,000; PINK1 immunofluorescence, high-content cytometry, 24 h; Potency, µM (top dose mostly 76.6 µM), usual class: activators; active means well fitted activation curve with a large enough effect; inconclusive means small, poorly fitted or top-dose-only effect; cell line not stated here; further: nearly all actives have a fitted effect of over 65% in size
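Stable cell line treated 24 h with compounds at 5 concentrations (CCCP controls), then fixed and immunostained for PINK1 plus nuclear and cell stains; PINK1 immunofluorescence quantified by laser-scanning microplate cytometry.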
12-LOX inh = inhibitors of human 12S-lipoxygenase ALOX12; hit rate 1.1% among 580,000; Potency, µM (doses to about 108 µM), hits mostly inhibitors; P18054; purified 12hLO, xylenol orange hydroperoxide absorbance
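Purified human 12hLO (150 nM final) in 25 mM Hepes, 0.01% Triton X-100, pH 7.0 was preincubated 15 min at room temperature with compound. Then 40 uM arachidonic acid was added, 30 min. Hydroperoxide was read by Fe-XO absorbance ratio 573/405 nm.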
A number is an active result; n = inactive; u = inconclusive; x = no result. Unless noted, the call rests on the fitted dose curve; in most records, active means well fitted curve in the direction sought with a large enough effect; inconclusive means small, poorly fitted or top-dose-only effect, or another doubt; inactive means no such curve, though single readings can be large; an effect the other way counts as inactive or inconclusive.

SMILES	ERG-DNA inh	miR-21 reporter	Giardia kill	PTHR1 agonist	PINK1 modulator	12-LOX inh
O=C(N/N=C/c1ccc([N+](=O)[O-])o1)C1CC1	n	u	-85	n	n	n
O=[N+]([O-])c1ccc(/C=N/Nc2nc(N3CCCCC3)nc(N3CCCCC3)n2)o1	n	n	-84	n	n	n
O=C(CNc1ccc2ccccc2c1)N/N=C/c1ccc([N+](=O)[O-])o1	n	n	-91	n	n	n
O=C(CSc1ccc(Cl)cc1)N/N=C/c1ccc([N+](=O)[O-])o1	n	n	-95	n	u	40µM
COc1c(/C=N/Nc2nc(N3CCCCC3)nc(N3CCCCC3)n2)cccc1[N+](=O)[O-]	n	n	n	n	n	n
NC(=O)N/N=C/c1ccc([N+](=O)[O-])o1	n	x	u	n	n	n
NC(=O)C1CCN(Cc2nc(-c3ccccc3)no2)CC1	n	n	n	n	n	n
Cc1cc(C(=O)COC(=O)c2ccc(O)cc2)c(C)n1CC(F)(F)F	n	x	n	n	n	n
CC(C)N(CC#CCC1(O)c2ccccc2-c2ccccc21)CCO	x	n	n	n	n	7.9µM
COc1ccc(OC)c2[nH]c(C(=O)NCC(=O)Nc3ccc4c(c3)OCCO4)cc12	x	x	x	x	x	n
COCCN1CCC(N2CCN(S(=O)(=O)c3ccccc3Cl)CC2)C1=O (stereo not given)	x	x	x	x	x	n
Cc1cc(Cl)ccc1NNC(=O)c1c(C)noc1C	n	n	n	n	n	32µM
Cc1ccc(S(=O)(=O)N2CCN(C(=O)c3ccco3)CC2)cc1	n	n	n	n	n	n
CCCCCCCC[n+]1cccc2c3ccccc3ccc21	n	u	n	n	25µM	u
COc1ccccc1CCN1CCCC(CN(C)C(=O)Cn2cccnc2=O)C1 (stereo not given)	x	x	x	x	x	n
CCCCCC[N+](C)(C)CCSSCC[N+](C)(C)CCCCCC	n	n	n	n	n	n
C[N+](C)(C)CCSSCC[N+](C)(C)C	x	x	x	x	x	4µM
O=C(Nc1ccncc1)c1ccc2c(c1)C(=O)N(C1CCCCC1)C2=O	n	n	n	n	n	n
CCC(=O)Nc1ccc2c(c1)C(=O)N(C1CCCCC1)C2=O	n	n	n	n	3.5µM	n
CC1=C(C(=O)N2CCCCCC2)CC(CC(=O)NCCc2ccccn2)C(=O)N1Cc1ccc(F)cc1 (stereo not given)	x	x	x	n	n	n
Cc1cnc2c(S(=O)(=O)N3CCCC3C(=O)N(C)C)cccc2c1 (stereo not given)	x	x	x	x	x	n
Cc1cncc2cccc(S(=O)(=O)N3CCCN(C(=O)CN)C[C@@H]3C)c12	x	x	x	x	x	4.3µM
CCOCCCNC(=O)Cc1ccc(OC)c(OC)c1	n	n	n	n	n	n
CCc1nnc(NC(=O)[C@@H](NS(=O)(=O)c2ccc3c(c2)OCCO3)C(C)C)s1	n	x	n	n	n	n
CCc1nnc(NC(=O)C(NS(=O)(=O)c2ccc3c(c2)OCCO3)C(C)C)s1 (stereo not given)	n	n	n	n	n	35µM
SMILES	ERG-DNA inh	miR-21 reporter	Giardia kill	PTHR1 agonist	PINK1 modulator	12-LOX inh
NNc1ccc(F)cc1F	x	x	x	x	x	4.5µM
O=C(Nc1ccc(F)cc1F)C12CC3CC(CC(Cl)(C3)C1)C2	x	x	x	x	x	n
O=c1[nH]c(CSc2nc3ccccc3o2)nc2ccccc12	x	x	x	x	x	n
O=c1[nH]c(CSc2nc3ccccc3o2)nc2cc(Cl)ccc12	x	x	x	x	x	8.9µM
O=C(COc1cccnc1[N+](=O)[O-])Nc1c(Cl)cccc1Cl	n	x	u	n	n	n
O=C(COc1cccnc1[N+](=O)[O-])c1ccc(Cl)s1	n	n	n	n	n	40µM
O=C(COc1cccnc1[N+](=O)[O-])Nc1cc(Cl)ccc1Cl	n	x	u	n	n	n
O=C(COc1cccnc1[N+](=O)[O-])Nc1ncc(Cl)cc1Cl	n	x	-80	n	n	u
COc1ccc(C(=O)Nc2c(N)nc(SCC(=O)NCC3CCCO3)[nH]c2=O)cc1OC (stereo not given)	n	n	n	n	n	n
CCCn1c(N)c(C(=O)COc2ccc(Br)cc2F)c(=O)n(C)c1=O	n	n	n	n	n	n
C=CCOC(=O)C(=O)/C=C/c1ccc2c(c1)Cc1ccccc1-2	n	n	n	n	n	14µM
CN1CCc2c([nH]c3ccccc23)C12CCN(C(=O)c1ccc(Cn3ccnc3)o1)CC2	x	x	x	x	x	n
CCOC(=O)C1=CC[C@H]2c3c(c4ccc(OC)cc4n3C)C(=O)C1N2S(=O)(=O)c1ccc(C)cc1	n	x	n	n	n	n
CCOC(=O)c1c(S(=O)(=O)NCC(=O)Nc2cccc(F)c2)c(C)n(C)c1C	n	n	n	n	n	n
C(=Nc1cnc2ccccc2c1)c1cccnc1	x	x	x	x	n	x
CCCN(CCC)S(=O)(=O)c1ccc(C(=O)Nc2cccc(-c3nc4ccccc4[nH]3)c2)cc1	n	u	x	n	n	n
CCOc1ccc(-c2nc(SCC(=O)c3ccccc3)n[nH]2)cc1	n	n	x	n	n	u
O=C(CSc1n[nH]c(-c2ccccc2)n1)c1ccc(O)c(O)c1	n	n	n	n	n	2.5µM
Cc1cc(SCC(=O)c2ccc(O)c(O)c2)nc2ccccc12	n	n	n	n	n	6.3µM
Cc1cc(SCC(=O)c2ccc3c(c2)OCO3)nc2ccccc12	n	n	n	n	n	n
Cc1cc(SCC(=O)c2ccc3c(c2)OCCO3)nc2ccccc12	x	x	x	x	x	16µM
Cc1cc(SCC(=O)O)nc2ccccc12	n	n	n	n	n	n
COc1ccc(OC)c(CN(CC(C)C)S(=O)(=O)c2ccccc2Br)c1	x	x	x	x	x	n
c1ccc2c(-c3cc(C4CCNCC4)[nH]n3)cccc2c1	n	n	n	n	n	n
NC(=O)c1c(NC(=O)c2ccc(F)cc2Cl)sc2c1CCC2	n	n	n	n	n	u
SMILES	ERG-DNA inh	miR-21 reporter	Giardia kill	PTHR1 agonist	PINK1 modulator	12-LOX inh
CCOc1ccc(NC(=O)Cn2c(Nc3cc(C)cc(C)c3)nc(C)cc2=O)cc1	x	x	x	x	x	35µM
S=c1nn[nH]c2ccccc12	n	x	n	n	n	32µM
Nc1n[nH]c2ccccc12	n	n	n	n	n	n
Cc1ccc(NC(C(=O)c2ccccc2)c2ccccc2)cc1 (stereo not given)	n	x	n	n	35µM	u
CCCCn1c(N)c(N(Cc2ccccc2OC)C(=O)CC2OC(=O)c3ccccc32)c(=O)[nH]c1=O (stereo not given)	n	x	n	n	n	n
COc1ccc(N=Cc2c(O)c3ccccc3n2C(C)=O)cc1	n	n	n	n	25µM	n
COc1ccc(N=Cc2sc(O)c3ccccc23)cc1	n	n	n	n	n	u
Cc1cc(C)cc(NC(=O)c2ccc3c(c2)CCC3)c1	x	x	x	x	x	n
Cc1ccc(NC(=O)CCc2nnc3ccc(NCc4ccco4)nn23)nc1	n	n	n	u	n	n
